Assay results: the supplement of paper PMC4858399

Tests used:
Settings in all cases: exposure time 48 h
[1] = test system: Caenorhabditis elegans N2; assay: AC50 for larval growth inhibition (Hill fit); higher = less potent
Procedure, shortened: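 Worms were synchronised C. elegans N2 L1 larvae, 50 per well of a 96-well plate, kept 48 h at 20°C in K-medium with killed OP50, 1% DMSO and 0.5–200 µM chemical. Size was taken as COPAS Biosort extinction, log-transformed and averaged per well, using only wells with at least 10 worms. AC50 was estimated by a constrained Hill fit with weighted genetic-algorithm regression; values outside the range are censored.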

[2] = test system: Caenorhabditis elegans N2; assay: lowest effective concentration for larval growth inhibition (size below effect threshold); higher = less potent
Procedure, shortened: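 L1 larvae of C. elegans N2 (50 per 96-well) were grown in K-medium with killed bacteria and 1% DMSO, with the chemical at 0.5, 1, 5, 10, 50, 100 or 200 µM, for 48 h at 20°C. Per-worm extinction from the Biosort stood for size and was log-transformed into well means. For each chemical, the lowest effective concentration is the first dose where plate-adjusted mean size falls under the threshold and stays under it at the higher doses, using a threshold of 5.665.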

[3] = test system: Caenorhabditis elegans N2; assay: mean nematode size ln(EXT) after 48 h, plate-adjusted (DMSO control set to 6) (ln(EXT), control-adjusted); higher = larger nematodes / less growth inhibition
Procedure, shortened: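 C. elegans N2 larvae, synchronised at L1, grew for 48 h at 20°C in K-medium with killed OP50, 1% DMSO and 0.5–200 µM chemical. Mean size per well was derived from natural-logged Biosort extinction after a growth model removed debris. Adjustment across plates involved subtracting the vehicle control mean and adding 6.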

CCOc1nc(C(Cl)(Cl)Cl)ns1 [Etridiazole]
Settings	AC50 for larval growth inhibition [µM]	lowest effective concentration [µM]
[1]	> 200	–
[2]	–	50

[3]
Settings	mean nematode size ln(EXT) (ln)
0.5 µM	5.72
1 µM	5.81
5 µM	5.8
10 µM	5.83
50 µM	5.57
100 µM	5.59
200 µM	4.58
